Source: PubChem BioAssay (Broad Institute)
GSIS activator: primary screen for activators of insulin secretion dependent on glucose, INS-1E cells, GLuc reporter luminescence | AID 743287 | activation, % at 16.6 µM | INS-1E GLuc reporter insulin secretion, 2-3 h | 370,000 compounds, 0.61% hits;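 active = lowest replicate activation of at least 40%, so every replicate reaches that level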;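 note: 0% = median of neutral control wells and 100% = median of IBMX positive control wells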
SR-BI DiI inh: blocks mouse SR-BI lipid uptake from DiI-HDL | Q61009 | ldlA[mSR-BI] CHO cells, DiI-HDL uptake fluorescence, 3 h | inhibition, % at 12.5 µM | 320,000 compounds, 0.96% hits | AID 488896;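 active = mean replicate inhibition of at least 70% and a set share of replicates each scoring 70 or more; inconclusive = meets just one of the two criteria; inactive = fails both criteria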;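 note: 0% = median of neutral control wells and 100% = median of positive control wells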
SR-BI uptake up: SR-BI HDL lipid transfer activation | CHO ldlA[mSR-BI] cells, DiI-HDL uptake fluorescence, 3 h; 100 = double the neutral-control signal | activation, % at 12.5 µM | 320,000 compounds, 0.096% hits | AID 504775;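 active = mean replicate activation of at least 60% and every replicate at or above 60%; inconclusive = mean or all-replicate condition met, but not both; inactive = mean below 60% and not all replicates reaching 60%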;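 note: 0% = median plate neutral-control signal and 100% = twice that signal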
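Material: SR-BI-overexpressing, LDLR-lacking CHO cells; schedule: compound exposure 3 h, 37 °C; reagent: DiI-labelled HDL at 10 µg/mL final; technique: bottom-read fluorescence, 550/595 nm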
Yeast UUG start: modulators of start codon recognition fidelity in yeast. S. cerevisiae UUG-firefly luciferase reporter, luminescence/redox ratio. activity score, % at 18.7 µM. 0.13% of 350,000 active. AID 602363;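 active = replicate mean at a twofold rise or more, about +100% in these data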;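 also: firefly luciferase made from a UUG start codon reports start codon fidelity; reporter light over untreated wells divided by growth signal over untreated wells; some hits fall short of that in this replicate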
Active calls of the source: *; ? = inconclusive; / = no result given. Only some compounds are listed: those with a hit (about 1.3% of all), similar ones and a draw of the others.

SMILES	GSIS activator	SR-BI DiI inh	SR-BI uptake up	Yeast UUG start
CCOc1ccc(C(=O)N/N=C/c2cc([N+](=O)[O-])cs2)cc1	10	31	-31	/
CC=Cc1ccc2n(c1=O)C[C@@H]1N[C@H]2[C@H](C(=O)NC2CCCCC2)[C@H]1CO (mixture of isomers)	5	/	/	/
C[C@@H]1CN([C@@H](C)CO)C(=O)c2cc(NC(=O)Nc3ccccc3)ccc2O[C@@H](C)CCCCO[C@H]1CN(C)C(=O)c1ccccc1	-3	/	/	-2
COc1ccc(S(=O)(=O)N(C)C[C@@H]2Oc3ccc(NS(=O)(=O)c4ccc(C)cc4)cc3C(=O)N([C@H](C)CO)C[C@H]2C)cc1	7	/	/	/
CCN(CC)S(=O)(=O)c1cccc(C(=O)N/N=C/c2ccc(O)c(O)c2O)c1	-1	1	-1	/
CCOc1ccccc1/C=N/NC(=O)c1cccc(S(=O)(=O)N(CC)CC)c1	4	77*	-77	13
CO[C@@H]1CN(C)C(=O)c2cc(NC(=O)CC(F)(F)F)ccc2OC[C@@H](C)N(S(=O)(=O)c2cn(C)cn2)C[C@@H]1C	0	/	/	-4
Cc1ccc(S(=O)(=O)Nc2ccc3c(c2)C(=O)N([C@H](C)CO)C[C@@H](C)[C@H](CN(C)C(=O)Nc2c(C)noc2C)OCCCC[C@@H](C)O3)cc1	-4	/	/	0
COc1ccc(NC(=O)N2C[C@H]3[C@@H](c4ccccc42)[C@@H](CO)N3C(=O)C2CCCCC2)cc1	-4	/	/	15
O=c1[nH]nc(-c2ccc(F)cc2)cc1Cc1cccs1	46*	-1	1	/
Cc1ccc(-c2cc(Cc3cccs3)c(=O)[nH]n2)cc1	27	33	-33	-24
COc1ccc(S(=O)(=O)Nc2ccc3c(c2)OCO3)cc1OC	43*	-9	9	-22
COc1ccc(NS(=O)(=O)c2ccc3c(c2)OCCO3)cc1OC	-27	-15	15	-3
O=C(O)c1ccc(NS(=O)(=O)c2ccc3c(c2)OCCO3)cc1	29	-20	20	-16
O=C(O)Cc1ccc(NS(=O)(=O)c2ccc3c(c2)OCCO3)cc1	130*	/	/	-4
O=C(N/N=C/c1ccco1)c1cc(-c2ccccc2)nc2ccccc12	-1	55	-55	-21
O=C(N/N=C/c1ccc([N+](=O)[O-])o1)c1cc(-c2cccc(Br)c2)nc2ccccc12	/	105*	-105	-9
CCCc1ccc(-c2cc(C(=O)N/N=C/c3ccc([N+](=O)[O-])o3)c3ccccc3n2)cc1	/	95*	-95	-32
Cc1cc(C(=O)N/N=C/c2ccc([N+](=O)[O-])o2)c(C)o1	-18	/	/	/
Oc1ccc(-c2nc3c4c(ncn3n2)-c2ccccc2CC42CCCC2)cc1	190*	37	-37	/
CN1CCN(C(=O)c2cccc(-c3cnc4cnc(-c5ccccc5Oc5ccccc5)cn34)c2)CC1	42*	/	/	-10
c1ccc(-c2nnc3n2-c2ccccc2SC3)cc1	58*	-25	25	/
c1ccc2c(c1)OCC(c1nnc3n1-c1ccccc1SC3)O2 (stereo unspecified)	/	/	/	-7
C[C@H]1CN([C@@H](C)CO)C(=O)c2cc(NC(=O)CCCCCC(=O)Nc3ccccc3N)ccc2O[C@@H]1CN(C)S(=O)(=O)c1ccc(F)cc1	13	/	/	/
CCOC(=O)c1cc(C)n(CCc2ccccc2)c1C	/	80*	-80	-3

In the list so far, these have a nitro group on carbon.
SMILES	GSIS activator	SR-BI DiI inh	SR-BI uptake up	Yeast UUG start
CCOc1ccc(C(=O)N/N=C/c2cc([N+](=O)[O-])cs2)cc1	10	31	-31	/
O=C(N/N=C/c1ccc([N+](=O)[O-])o1)c1cc(-c2cccc(Br)c2)nc2ccccc12	/	105*	-105	-9
CCCc1ccc(-c2cc(C(=O)N/N=C/c3ccc([N+](=O)[O-])o3)c3ccccc3n2)cc1	/	95*	-95	-32
Cc1cc(C(=O)N/N=C/c2ccc([N+](=O)[O-])o2)c(C)o1	-18	/	/	/

Returning to the listing with the two entries that preceded the break.
SMILES	GSIS activator	SR-BI DiI inh	SR-BI uptake up	Yeast UUG start
C[C@H]1CN([C@@H](C)CO)C(=O)c2cc(NC(=O)CCCCCC(=O)Nc3ccccc3N)ccc2O[C@@H]1CN(C)S(=O)(=O)c1ccc(F)cc1	13	/	/	/
CCOC(=O)c1cc(C)n(CCc2ccccc2)c1C	/	80*	-80	-3
COc1ccc(NS(=O)(=O)c2cccc(C(=O)N3CCN(Cc4cc(OC)ccc4OC)CC3)c2)cc1	9	74*	-74	-11
COc1ccc(OC)c(CN2CCN(C(=O)c3ccc(C)c(S(=O)(=O)Nc4ccccc4OC)c3)CC2)c1	-6	77*	-77	-14
COc1ccc(OC)c(CN2CCN(C(=O)c3cccc(S(=O)(=O)Nc4ccc(C)cc4)c3)CC2)c1	-16	40	-40	-4
Cc1ccc(S(=O)(=O)Nc2ccc3c(c2)C(=O)N([C@H](C)CO)C[C@H](C)[C@H](CN(C)C(=O)c2ccccc2)OCCCC[C@H](C)O3)cc1	-35	/	/	21
COc1ccc(S(=O)(=O)Nc2ccc3c(c2)CC(=O)N([C@H](C)CO)C[C@@H](C)[C@H](CN(C)S(C)(=O)=O)O3)cc1	9	/	/	-7
CCOC(=O)N(C)C[C@H]1OCc2cn(nn2)CCCC(=O)N([C@@H](C)CO)C[C@H]1C	24	/	/	/
O=C(Nc1cccc(C(F)(F)F)c1)c1csc([C@@H]2C[C@H](O)[C@@H](CO)O2)n1	0	/	/	6
O=C(Nc1cccc(C(F)(F)F)c1)c1csc([C@@H]2O[C@H](CO)[C@@H](O)[C@H]2O)n1	80*	/	/	-40
COc1ccc(Cl)cc1NC(=O)c1cc(-c2ccccc2O)n[nH]1	5	90*	-90	/
COc1ccc(Cl)cc1NC(=S)Nc1ccccc1C	2	9	-9	/
COc1ccc(Cl)cc1NC(=O)NC1CCCCC1	/	19	-19	-10
COc1ccc(Cl)cc1NC(=O)Nc1cccc([N+](=O)[O-])c1C	-28	78*	-78	-9
COc1ccc(Cl)cc1NC(=O)c1ccccc1C	/	86*	-86	-18
COc1cccc(-c2ccc([C@H]3[C@H](CO)N4CCCCN(C(=O)NC(C)C)C[C@@H]34)cc2)c1	-19	/	/	-10
CCSc1nc(-c2ccc(OC)cc2)cc(-c2ccccc2)c1C#N	/	80*	-80	-14
COc1ccc(-c2cc(-c3ccccc3)c(C#N)c(S(C)=O)n2)cc1 (stereo unspecified)	/	17	-17	-11
C/C(=N/NC(=O)CSCc1ccc(Cl)cc1)c1cccc(NC(=O)c2ccccc2)c1	/	81*	-81	-5
C/C(=N\NC(=O)CSCc1ccc(Cl)cc1)c1ccc(NC(=O)c2ccccc2)cc1	/	?	-72	/
CC(C)CC#Cc1cnc2c(c1)C(=O)N([C@@H](C)CO)C[C@H](C)[C@@H](CN(C)C(=O)c1ccccc1F)O2	-8	/	/	4
COc1cc(NC(=O)C2=C(N3CCOCC3)/C(=C/c3ccc(Cl)cc3)CC2)cc(OC)c1OC	/	74*	-74	/
COc1cc(NC(=O)C2=C(N3CCOCC3)/C(=C\c3ccc(N(C)C)cc3)CCC2)cc(OC)c1OC	-26	74*	-74	/
COc1ccc(C(=O)Nc2ccc(NC(=O)c3ccco3)c(Cl)c2)cc1OC	/	75*	-75	-1
COc1ccc(NC(=O)c2cc(Cl)ccc2NC(=O)c2ccco2)c(OC)c1	/	74*	-74	-11
CC(C)COc1ccc(C(=O)Nc2ccc(NC(=O)c3ccco3)c(Cl)c2)cc1	/	69	-69	-15
CC(C)Oc1ccc(C(=O)Nc2ccc(NC(=O)c3ccco3)c(Cl)c2)cc1	12	79*	/	-6
C/C=C/c1ccc([C@H]2[C@H](CO)N(C(=O)c3cnccn3)C23CN(C(=O)CC)C3)cc1	13	/	/	/
CN1CCN(C(=O)C[C@@H]2CC[C@@H]3[C@H](COc4ccc(NC(=O)c5cscn5)cc4C(=O)N3C)O2)CC1	-2	/	/	/
COc1ccc(NC(=O)Nc2ccc3c(c2)C(=O)N([C@H](C)CO)C[C@H](C)[C@H](CN(C)C(=O)Nc2ccc(F)cc2)OCCCC[C@H](C)O3)cc1	-29	/	/	-11
